{
  "sequences": {"note": "Sequences of proteins named here, by UniProt entry; tags and fusion partners are left off. A change or cut given only in a name is not applied to a line headed by its entry.", "UniProt P22303": "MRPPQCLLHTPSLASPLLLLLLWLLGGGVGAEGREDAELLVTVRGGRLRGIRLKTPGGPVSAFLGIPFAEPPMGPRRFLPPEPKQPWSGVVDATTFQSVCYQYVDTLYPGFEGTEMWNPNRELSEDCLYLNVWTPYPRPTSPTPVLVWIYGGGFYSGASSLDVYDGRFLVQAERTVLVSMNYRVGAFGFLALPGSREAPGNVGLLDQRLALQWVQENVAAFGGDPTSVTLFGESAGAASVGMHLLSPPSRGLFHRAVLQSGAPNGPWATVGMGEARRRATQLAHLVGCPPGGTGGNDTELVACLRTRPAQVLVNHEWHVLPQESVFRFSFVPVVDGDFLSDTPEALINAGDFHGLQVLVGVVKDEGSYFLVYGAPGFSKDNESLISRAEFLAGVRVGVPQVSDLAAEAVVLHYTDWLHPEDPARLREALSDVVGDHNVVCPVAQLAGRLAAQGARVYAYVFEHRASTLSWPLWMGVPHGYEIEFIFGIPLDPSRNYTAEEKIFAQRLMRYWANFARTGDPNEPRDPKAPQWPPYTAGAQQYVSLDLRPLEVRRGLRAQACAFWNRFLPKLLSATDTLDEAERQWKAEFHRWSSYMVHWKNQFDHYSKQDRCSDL"},
  "source": "patent US12209090B2",
  "about": "“3,6-disubstituted-2-pyridinaldoxime scaffolds” (dated 2025)",
  "key": {"hAChE inhibited by tabun": {"biological_target": "hAChE inhibited by tabun (Homo sapiens, UniProt P22303)", "experiment": "Reactivation of tabun-inhibited hAChE by oximes"}, "[1]": {"biological_target": "hAChE inhibited by paraoxon (Homo sapiens, UniProt P22303)", "experiment": "Reactivation of paraoxon-inhibited hAChE by oximes"}, "[2]": {"biological_target": "hAChE inhibited by O-ethyl S-[2-(diisopropylamino)ethyl] methylphosphonothioate (VX) (Homo sapiens, UniProt P22303)", "experiment": "Reactivation of VX-inhibited hAChE by oximes"}, "hAChE inhibited by sarin": {"biological_target": "hAChE inhibited by sarin (Homo sapiens, UniProt P22303)", "experiment": "Reactivation of sarin-inhibited hAChE by oximes"}},
  "data": [
    {"substance": "(2S,3S,4R,5R)-5-(6-amino-9H-purin-9-yl)-3,4-dihydroxy-N-(4-(6-(hydroxyimino) methyl)pyridin-2-yl)but-3-yn-1-yl)tetrahydrofuran-2-carboxamide", "values": [
      {"measurement": "kr2 (second-order reactivation rate constant, kr/KD)", "setting": "hAChE inhibited by tabun; OP = Tabun", "value": 633, "unit": "M⁻¹ s⁻¹"},
      {"measurement": "kr (maximal reactivation rate constant)", "setting": "hAChE inhibited by tabun; OP = Tabun, 37° C., phosphate buffer pH 7.4", "value": "1.2 ± 0.07", "unit": "min⁻¹"},
      {"measurement": "reactivation kinetics (kr) as compared to references 2-PAM and HI6", "setting": "hAChE inhibited by tabun; Tabun, in words", "value": "higher reactivation kinetics"},
      {"measurement": "kr2 (second-order reactivation rate constant, kr/KD)", "setting": "[1]; OP = Paraoxon", "value": 107, "unit": "M⁻¹ s⁻¹"},
      {"measurement": "kr (maximal reactivation rate constant)", "setting": "[1]; OP = Paraoxon, 37° C., phosphate buffer pH 7.4", "value": "0.36 ± 0.16", "unit": "min⁻¹"},
      {"measurement": "reactivation kinetics (kr) as compared to references 2-PAM and HI6", "setting": "[1]; Paraoxon, in words", "value": "higher reactivation kinetics"},
      {"measurement": "kr2 (second-order reactivation rate constant, kr/KD)", "setting": "[2]; OP = VX", "value": 100, "unit": "M⁻¹ s⁻¹"},
      {"measurement": "kr (maximal reactivation rate constant)", "setting": "[2]; OP = VX, 37° C., phosphate buffer pH 7.4", "value": "0.58 ± 0.07", "unit": "min⁻¹"},
      {"measurement": "reactivation kinetics (kr) as compared to references 2-PAM and HI6", "setting": "[2]; VX, in words", "value": "higher reactivation kinetics"},
      {"measurement": "kr2 (second-order reactivation rate constant, kr/KD)", "setting": "hAChE inhibited by sarin; OP = Sarin", "value": 182, "unit": "M⁻¹ s⁻¹"},
      {"measurement": "kr (maximal reactivation rate constant)", "setting": "hAChE inhibited by sarin; OP = Sarin, 37° C., phosphate buffer pH 7.4", "value": "1.2 ± 0.15", "unit": "min⁻¹"},
      {"measurement": "reactivation kinetics (kr) as compared to references 2-PAM and HI6", "setting": "hAChE inhibited by sarin; Sarin, in words", "value": "higher reactivation kinetics"}
    ]}
  ]
}
